Values of other authors as cited in patent US20130338178A1, “SIRTUIN MODULATORS AS INHIBITORS OF CYTOMEGALOVIRUS” (THE TRUSTEES OF PRINCETON UNIVERSITY, priority 2011, published 2013).

Biological target: T1, SIRT2 (Homo sapiens, UniProt Q8IXJ6)
T1 sequence (Q8IXJ6 1-389): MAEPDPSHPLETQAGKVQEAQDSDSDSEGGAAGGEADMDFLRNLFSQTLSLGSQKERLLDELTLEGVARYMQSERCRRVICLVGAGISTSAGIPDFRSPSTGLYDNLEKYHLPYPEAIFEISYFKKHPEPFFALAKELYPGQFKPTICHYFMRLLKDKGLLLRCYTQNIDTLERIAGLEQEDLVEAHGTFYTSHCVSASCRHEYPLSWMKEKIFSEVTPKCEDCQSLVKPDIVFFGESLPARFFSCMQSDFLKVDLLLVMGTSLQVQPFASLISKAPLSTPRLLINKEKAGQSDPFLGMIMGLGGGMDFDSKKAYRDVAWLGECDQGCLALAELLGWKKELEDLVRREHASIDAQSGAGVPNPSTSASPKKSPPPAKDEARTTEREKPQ
Settings: cited from earlier work

## Cambinol
  IC50: 59 µM
